Four molecules from article PMC6733930 can be followed below.

Sequences of proteins named here, by UniProt entry; tags and fusion partners are left off. A change or cut given only in a name is not applied to a line headed by its entry.
UniProt P32851, whole entry, chain 1 of 3: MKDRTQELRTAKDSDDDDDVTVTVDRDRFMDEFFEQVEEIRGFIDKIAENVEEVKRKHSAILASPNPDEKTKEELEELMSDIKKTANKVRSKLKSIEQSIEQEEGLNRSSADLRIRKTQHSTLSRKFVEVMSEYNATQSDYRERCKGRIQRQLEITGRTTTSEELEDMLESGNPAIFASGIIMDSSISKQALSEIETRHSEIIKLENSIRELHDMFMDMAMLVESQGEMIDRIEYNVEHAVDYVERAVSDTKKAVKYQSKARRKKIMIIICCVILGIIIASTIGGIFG
UniProt P63041: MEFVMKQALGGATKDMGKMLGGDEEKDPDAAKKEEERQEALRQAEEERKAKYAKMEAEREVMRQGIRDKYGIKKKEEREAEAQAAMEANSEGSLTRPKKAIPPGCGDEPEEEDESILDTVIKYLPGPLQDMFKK

For assay [1], the target named is trans-SNARE complex in nanodiscs with dye-labelled cysteine-free syntaxin1a (cysteine at residue 203) (UniProt P32851). The assay can be described thus: single-molecule colocalisation (three-colour TIRF microscopy); trans-SNARE NDs (0.5 µM) incubated with C2AB (1 µM) and complexin I (1 µM) at RT for 10 min, diluted to 10 pM, immobilised on a glass slide, unbound protein washed out; 0.5 mM CaCl2, 100 mM KCl, 25 mM HEPES pH 7.4; only single trans-SNARE complexes analysed.

Assay [2] addresses trans-SNARE complex in nanodiscs (t-SNARE heterodimer in one nanodisc, v-SNARE in another), P32851;P60881;P63045. The assay can be described thus: HaloTag pull-down of nanodiscs, Coomassie gel densitometry. As to conditions: chain shown with the change, read off a plot.

In assay [1], “complexin I, cysteine-free, cysteine at residue 131, labelled with Alexa Fluor 488 (from UniProt P63041 1-134) (natural protein)” yielded a percent of single trans-SNARE complexes with both C2AB and complexin bound of 5.3%.

In assay [1], “synaptotagmin 1 C2AB (residues 96-421), cysteine-free, cysteine at residue 234, dye-labelled (from UniProt P21707 96-421) (domain or fragment)” yielded a percent of single trans-SNARE complexes with both C2AB and complexin bound of 5.3%.

B1: His6-HaloTag synaptotagmin 1 C2B (aa 273-421), wild type, P21707 R398Q; R399Q (protein)
chain: LGDICFSLRYVPTAGKLTVVILEAKNLKKMDVGGLSDPYVKIHLMQNGKRLKKKKTTIKKNTLNPYYNESFSFEVPFEQIQKVQVVVTVLDYDKIGKNDAIGKVFVGYNSTGAELRHWSDMLANPQQPIAQWHTLQVEEEVDAMLAVKK
On to B1, for which the response (relative t-SNARE binding) in assay [2] (+Ca2+, parent: est. 3.5) worked out at 2; in assay [2] (-Ca2+, parent: est. 1.0), 0.45.

B2: His6-HaloTag synaptotagmin 1 C2B (aa 273-421), wild type, P21707 K326E; K327E (protein)
chain: LGDICFSLRYVPTAGKLTVVILEAKNLKKMDVGGLSDPYVKIHLMQNGKRLKKEETTIKKNTLNPYYNESFSFEVPFEQIQKVQVVVTVLDYDKIGKNDAIGKVFVGYNSTGAELRHWSDMLANPRRPIAQWHTLQVEEEVDAMLAVKK
Regarding B2, the response (relative t-SNARE binding) was determined as 0.7 in assay [2] (+Ca2+, parent: est. 3.5) and 0.3 in assay [2] (-Ca2+, parent: est. 1.0).
